Tests used:
plasmin = plasmin (Homo sapiens, UniProt P00747); assay: BMP2 release from NPs encapsulated with plasmin in LPELA hydrogel (ELISA); format: physicochemical; conditions: for cumulative BMP2 activity, % of the total BMP2 loaded in the hydrogel: after 21 days, non-cleavable NPs and plasmin encapsulated in hydrogel, ELISA; for cumulative release of BMP2 from LPELA hydrogel: after 21 days of incubation, NPs co-encapsulated with plasmin
Experimental: For release studies, plasmin (0.2 U/mL) was added to the suspension of 10 mg BMP2-PxSPCP NPs in 1 mL PBS and incubated at 37° C. with shaking at 50 rpm. At each time point, the suspension was centrifuged at 10,000 rpm for 5 minutes, the supernatant containing the free BMP2 was collected and replaced with fresh plasmin solution. BMP2 content of the supernatant solution was measured with a BMP2 ELISA kit. BMP2 added directly to the plasmin solution and BMP2-PxSP NPs were used as control groups.
Release Characteristics and Bioactivity of BMP2-PxSPCP NPs: The grafting efficiency of BMP2 to PxSPCP NPs decreased from 73.1±2.7% to 69.5±3.2% and 24.5±1.4% as the PEG MW was increased from 2 kDa to 5 kDa and 7.5 kDa, respectively. This decrease was attributed to higher entrapment of the reactive succinimide groups of PxSPCP within the NPs' core with increasing PEG MW, which reduced their availability for BMP2 grafting. BMP2-PxSPCP NPs were encapsulated in LPELA hydrogel, the hydrogel was incubated in PBS, and the release of BMP2 to the incubating medium was measured with time by ELISA. FIGS. 7A-7C show the release kinetic of BMP2 from the encapsulated NPs in LPELA hydrogel with PxSPCP PEG MW of 2 kDa (FIG. 7A), 5 kDa (FIG. 7B), and 7.5 kDa (FIG. 7C), respectively. […] The additional lines in (FIGS. 7A-7C) provide the release of free BMP2 with (circle, 11) and without (circle, 12) plasmin from LPELA hydrogel; the + and − signs correspond to with and without plasmin, respectively. Error bars correspond to means ±1 SD for n=3.
Experimental groups included BMP2-PxSPCP NPs plus plasmin encapsulated in the hydrogel (9, 13, 15 in FIGS. 7A-7C, respectively), BMP2-PxSP NPs plus plasmin in the hydrogel (dash 10, dash 14 or dash 16 in FIGS. 7A-7C, respectively), free BMP2 in the hydrogel (11), and free BMP2 plus plasmin in the hydrogel (12). […] The incomplete (<100%) release of free BMP2 from the hydrogel was attributed to protein adsorption to the matrix or protein denaturation during hydrogel encapsulation and gelation. ELISA measurements detected relatively small but significant BMP2 activity with incubation time for BMP2-PxSP NPs and plasmin encapsulated in the hydrogel (see 10, 14, or 16 in FIGS. 7A-7C), but the activity decreased with increasing PEG MW of the NPs. The cumulative BMP2 activity after 21 days associated with the encapsulated BMP2-PxSP NPs with PEG MW of 2 kDa, 5 kDa, and 7.5 kDa was 30%, 20% and 19% of the total BMP2 loaded in the hydrogel, respectively. This BMP2 activity was attributed to the release of BMP2-PxSP NPs from the hydrogel which was subsequently detected by ELISA. The BMP2 grafted to PxSPCP NPs and co-encapsulated in the hydrogel with plasmin was gradually released to the medium with incubation time at a rate faster than BMP2-PxSP NPs but slower than the free BMP2. For example, the cumulative release of BMP2 from the encapsulated BMP2-P5SPCP NPs was 60% after 21 days which was higher than the encapsulated P5SP NPs at 20% and slower than the free BMP2 at 80%.

Chains of the proteins cited; added tags and fusions are not shown. Residues count along the entry.
UniProt P00747, 97-810, species assumed: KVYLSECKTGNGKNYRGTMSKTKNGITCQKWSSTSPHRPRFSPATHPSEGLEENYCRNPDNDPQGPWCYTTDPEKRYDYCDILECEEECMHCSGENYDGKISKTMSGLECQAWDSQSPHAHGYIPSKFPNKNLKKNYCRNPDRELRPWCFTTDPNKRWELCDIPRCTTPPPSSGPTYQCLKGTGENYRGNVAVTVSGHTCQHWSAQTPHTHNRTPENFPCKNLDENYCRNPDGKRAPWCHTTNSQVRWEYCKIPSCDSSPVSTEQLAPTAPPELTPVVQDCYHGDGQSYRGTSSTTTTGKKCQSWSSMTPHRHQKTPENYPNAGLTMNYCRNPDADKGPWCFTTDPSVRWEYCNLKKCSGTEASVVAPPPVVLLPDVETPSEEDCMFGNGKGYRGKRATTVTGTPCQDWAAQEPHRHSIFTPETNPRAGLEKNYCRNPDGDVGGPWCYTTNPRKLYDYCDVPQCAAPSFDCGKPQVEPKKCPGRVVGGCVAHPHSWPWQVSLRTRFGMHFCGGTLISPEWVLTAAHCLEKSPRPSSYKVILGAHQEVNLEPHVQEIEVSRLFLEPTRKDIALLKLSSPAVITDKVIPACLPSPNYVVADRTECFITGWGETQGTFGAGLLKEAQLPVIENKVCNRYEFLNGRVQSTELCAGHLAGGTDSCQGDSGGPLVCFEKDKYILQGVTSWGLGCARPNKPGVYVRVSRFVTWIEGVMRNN

[1] = Grafting efficiency of BMP2 to PxSPCP NPs (ELISA of free BMP2); format: physicochemical; conditions: by PEG MW
Experimental: Grafting BMP2 to PxSPCP NPs and Protein Release: BSA was grafted to PxSPCP NPs for particle size analysis, grafting efficiency and protein stability studies whereas BMP2 was grafted for protein release and cell culture experiments. For grafting, 10 mg PxSPCP NPs were dispersed in PBS by sonication for 5 minutes. Next, 0.5 mL of BMP2 (400 ng/mL) or BSA (20 mg/mL) were added to the NP suspension and the grafting reaction between the free amine groups of BMP2 or BSA and the succinimide groups of the NPs was allowed to proceed overnight under ambient condition to produce BMP2-PxSPCP NPs (FIG. 1E). After the reaction, the suspension was centrifuged at 15000 rpm for 10 minutes and the amount of free (not grafted) BMP2 or BSA in the supernatant was quantified by ELISA or BCA protein assay, respectively.

hMSCs and ECFCs = assay: Osteogenic differentiation in patterned LPELA/GelMA hydrogel constructs; format: cell-based, human
Experimental: Encapsulation of hMSCs and ECFCs in Patterned Constructs: Patterned hydrogel constructs with GelMA micro-channels in LPELA matrix were generated for co-culture experiments (FIG. 2). […] The LPELA hydrogel precursor solution loaded with hMSCs and BMP2-PxSPCP NPs was injected inside a Teflon® cylinder fitted with needles. After LPELA gelation, needles were removed and the GelMA precursor solution loaded with ECFCs+hMSCs and VEGF-NGs was injected in the microchannels and crosslinked. The constructs were cultured in appropriate medium with time and analyzed with respect to the expression of markers for osteogenesis and vasculogenesis.
Needles with a diameter of 400 μm and inter-needle separation of 500 μm were inserted through the endcaps of a cylindrical Teflon® mold with diameter and height of 5 and 3 mm, respectively (FIG. 2). Next, the sterile LPELA precursor suspension composed of 200 mg LPELA, 4 mg Ac-GRGD (SEQ ID NO: 8) cell-adhesive peptide, 1.5 mg photo-initiator, 20 mg plasmin-cleavable PxSPCP NPs, and 2×106 hMSCs in 1 mL PBS was injected in the cylindrical mold and crosslinked by UV irradiation. Then, the needles were removed from the LPELA matrix, and the sterile GelMA precursor suspension composed of 50 mg GelMA, 0.375 mg photo-initiator, 2 mg VEGF-NGs, 2×106 of 50:50 hMSCs+ECFCs was injected in the channels and crosslinked by UV irradiation. After gelation, the patterned hydrogel constructs were washed with warm PBS, cultured in basal medium for one day, followed by cultivation in vasculogenic medium (without VEGF) for days 2-7, 50:50 mixture of vasculogenic and osteogenic medium (without VEGF, BMP2 or DEX) for days 8-10, and finally in osteogenic medium (without DEX or BMP2) for days 11-21.
Biochemical, mRNA and Protein Analysis and Immunofluorescent Staining: At each time point after washing the hydrogel constructs to remove serum proteins and sonicating to lyse the encapsulated cells, 43 samples were divided into four groups for biochemical, mRNA and protein analysis, and immunofluorescent staining. For biochemical analysis, the double-stranded DNA content, ALP activity, and calcium content of the homogenized samples were measured. For mRNA expression, the RNA of the homogenized samples was extracted and used for measurement of mRNA expression of osteogenic markers (RUNX2, Col I, and ALP) and vasculogenic markers (vWF, VEGFR, VE-cadherin, and CD31). To compare expression between the groups, mRNA-fold difference for expression of the gene of interest was normalized to that of GAPDH, followed by normalization against day one expression. The expression of CD31 vasculogenic marker of the homogenized samples at the protein level was quantified by western blot. […]

hMSCs = assay: Osteogenic activity of BMP2 released from NPs co-encapsulated with hMSCs in LPELA hydrogel; format: cell-based, human; conditions: for peak RUNX2 expression of hMSCs / peak ALP expression of hMSCs: mRNA fold expression; for peak RUNX2 expression of hMSCs: peak on day 7, osteogenic medium without DEX; for peak ALP expression of hMSCs: peak on day 14
Experimental: The bioactivity of BMP2 released from the NPs was determined by measuring the expression of osteogenic markers for hMSCs encapsulated in LPELA hydrogel and incubated in the osteogenic medium (without BMP2 or DEX) supplemented with BMP2 released from the NPs. The measured markers of osteogenic differentiation included RUNX2 (early marker) and calcium (late marker). Control groups included hMSCs encapsulated in LPELA hydrogel and incubated in osteogenic medium with or without BMP2 directly added to the medium.
Biochemical, mRNA and Protein Analysis and Immunofluorescent Staining: At each time point after washing the hydrogel constructs to remove serum proteins and sonicating to lyse the encapsulated cells, 43 samples were divided into four groups for biochemical, mRNA and protein analysis, and immunofluorescent staining. For biochemical analysis, the double-stranded DNA content, ALP activity, and calcium content of the homogenized samples were measured. For mRNA expression, the RNA of the homogenized samples was extracted and used for measurement of mRNA expression of osteogenic markers (RUNX2, Col I, and ALP) and vasculogenic markers (vWF, VEGFR, VE-cadherin, and CD31). To compare expression between the groups, mRNA-fold difference for expression of the gene of interest was normalized to that of GAPDH, followed by normalization against day one expression. The expression of CD31 vasculogenic marker of the homogenized samples at the protein level was quantified by western blot. Alizarin red and immunofluorescent staining were used to image the intensity of mineralization and CD31 expression. The stained samples were imaged with a Nikon Eclipse Ti-ε inverted fluorescent microscope.
Osteogenic Activity of BMP2 Released from PxSPCP NPs: BMP2-PxSPCP NPs (PEG MW of 2 kDa, 5 kDa, and 7.5 kDa) and hMSCs were co-encapsulated in LPELA hydrogel, incubated in osteogenic medium without DEX, and the extent of osteogenesis was measured with incubation time. The DNA contents of hMSCs with incubation time for BMP2-PxSPCP NPs with PEG MW of 2 kDa, 5 kDa, and 7.5 kDa are shown in FIGS. 8A-8C, respectively; mRNA expressions of RUNX2 are shown in FIGS. 8D-8F; and ALP mRNA expressions are shown in FIGS. 8G-8I. Experimental groups included BMP2-P2SPCP NPs (17), BMP2-P2SP NPs (18), BMP2-PSSPCP NPs (22), BMP2-PSSPCP NPs (23), BMP2-P7.5SPCP NPs (24), and BMP2-P7.5SP NPs (25) co-encapsulated with hMSCs in LPELA hydrogel. Control groups were hMSCs encapsulated in LPELA hydrogel and incubated in osteogenic medium supplemented with (19) or without (21) BMP2, and hMSCs co-encapsulated with BMP2 in the hydrogel and incubated in osteogenic medium without DEX (20). The DNA content of all groups decreased with incubation time. DNA content of those groups incubated in osteogenic medium without BMP2 or with BMP2-PxSP NPs decreased at a slower rate compared to those with BMP2 or BMP2-PxSPCP NPs, consistent with previous reports.

## BMP2-P2SP NPs: BMP2 grafted to non-cleavable PEG (2 kDa)-SP NPs without KFKT, control
plasmin
  cumulative BMP2 activity, % of the total BMP2 loaded in the hydrogel: 30%

## BMP2-P2SPCP NPs: BMP2 grafted to plasmin-cleavable P2SPCP NPs
[1]
  grafting efficiency of BMP2 to PxSPCP NPs: 73.1±2.7%
hMSCs and ECFCs; FIG. 9D
  Col I-fold expression: 15
hMSCs and ECFCs; FIG. 9E
  calcium content: 390 mg/mg DNA
hMSCs and ECFCs; FIG. 9F
  ALP activity: 2550 IU/mg DNA
hMSCs and ECFCs; after 21 days of incubation
  Alizarin red staining (mineralization): robust mineralization and nodule formation
hMSCs
  peak RUNX2 expression of hMSCs: 5.7
  peak ALP expression of hMSCs: 60

## BMP2-P5SP NPs: BMP2 grafted to non-cleavable PEG (5 kDa)-SP NPs without KFKT, control
plasmin
  cumulative release of BMP2 from LPELA hydrogel: 20%
  cumulative BMP2 activity, % of the total BMP2 loaded in the hydrogel: 20%

## BMP2-P5SPCP NPs: BMP2 grafted to plasmin-cleavable P5SPCP NPs
[1]
  grafting efficiency of BMP2 to PxSPCP NPs: 69.5±3.2%
hMSCs
  peak RUNX2 expression of hMSCs: 5.7
  peak ALP expression of hMSCs: 52
plasmin
  cumulative release of BMP2 from LPELA hydrogel: 60%

## BMP2-P7.5SP NPs: BMP2 grafted to non-cleavable PEG (7.5 kDa)-SP NPs without KFKT, control
plasmin
  cumulative BMP2 activity, % of the total BMP2 loaded in the hydrogel: 19%

## BMP2-P7.5SPCP NPs: BMP2 grafted to plasmin-cleavable P7.5SPCP NPs
[1]
  grafting efficiency of BMP2 to PxSPCP NPs: 24.5±1.4%
hMSCs; hMSCs in LPELA hydrogel
  osteogenic activity (peak RUNX2 expression), comparison in words: lower
hMSCs
  peak RUNX2 expression of hMSCs: 4.2
  peak ALP expression of hMSCs: 48

## free BMP2: rhBMP-2 (hereafter referred to as BMP2), received from MyBioSource
plasmin
  cumulative release of BMP2 from LPELA hydrogel: Approximately 80%
plasmin; free BMP2 in LPELA hydrogel
  effect of addition of plasmin to the hydrogel on BMP2 release: did not affect

Reference: patent US20230355541A1, “ENZYMATICALLY CLEAVABLE SELF-ASSEMBLED NANOPARTICLES FOR MORPHOGEN DELIVERY” (UNIVERSITY OF SOUTH CAROLINA, priority 2019, published 2023)
